Reference: patent publication US20240207302A1, “ANTIVIRAL COMPOUNDS, METHODS FOR THE MANUFACTURING OF COMPOUNDS, ANTIVIRAL PHARMACEUTICAL COMPOSITION, USE OF THE COMPOUNDS AND METHOD FOR THE ORAL TREATMENT OF CORONAVIRUS INFECTION AND RELATED DISEASES THEREOF” (priority 2021, published 2024)

Test system: SARS-COV-2
Assay: SARS-COV-2 viral RNA synthesis in HuH-7 cells (real time RT-PCR)

SMILES: C/C(=C\CNc1ncnc2[nH]cnc12)CO [MB-907, zeatin]
- SI: 12000
